One may read the inhibition as the relative decrease from the control value, in per cent.

Chains of the proteins cited; added tags and fusions are not shown. Lines headed by an entry give the natural chain unless they say otherwise; changes in a name come on top.
UniProt P31941: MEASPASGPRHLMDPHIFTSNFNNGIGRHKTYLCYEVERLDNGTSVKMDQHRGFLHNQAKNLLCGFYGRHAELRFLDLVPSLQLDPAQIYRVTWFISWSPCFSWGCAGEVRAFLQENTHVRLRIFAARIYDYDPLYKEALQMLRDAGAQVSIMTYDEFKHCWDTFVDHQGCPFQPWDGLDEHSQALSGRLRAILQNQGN

The structures appear in SMILES notation. The list shows a part of the results, in another mix than the full data. Activity calls are given as the source filed them.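 Rule for the calls: active = at least 40% inhibition at 20 µM here, with at most 30% in a related deaminase screen; inactive = the rest.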

This assay has as its target DNA dC->dU-editing enzyme APOBEC-3A (Homo sapiens) (UniProt P31941). The experiment in a line: APOBEC3A ssDNA deaminase inhibitors, primary screen, selectivity assay for APOBEC3G inhibitor project, biochemical, FAM/TAMRA oligo cleavage fluorescence (AID 493011).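 Note: plate controls were A3A with DMSO for no effect and wells lacking A3A enzyme for full effect.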 The note with it: recombinant A3A, FAM/TAMRA ssDNA deamination fluorescence; at 20 µM; hits give high values.
Regarding `COc1cc(C2NCCC3(OCCO3)C2(C)C)cc(OC)c1OC` (stereo not drawn), the inhibition was inactive: -0.211%.

Turning to `CCOP(=O)(Nc1cccc2ccccc12)OCC`, the inhibition was inactive: -0.538%.

With `CCCOP(=S)(Nc1nc(N)cc(=O)[nH]1)OCCC`, the inhibition was inactive: -5.35%.

`Cc1ccc(NCCc2c([N+](=O)[O-])cc([N+](=O)[O-])cc2[N+](=O)[O-])cc1`: the inhibition was inactive: 4.27%.

With `O=[As](O)(c1cccc(O)c1)c1cccc(O)c1`, the inhibition is inactive: 2.14%.

`Cc1cccc(OCC(=O)OC2CN3CCC2CC3)c1` (stereo not drawn): the inhibition is inactive: -1.51%.

In the case of `COc1cc(C(=O)NCC2(N3CCOCC3)CCCCC2)cc(Cl)c1OC(C)C`, the inhibition is inactive: -0.561%.

For the compound `O=[As](O)(O)c1cccnc1`, the inhibition was inactive: 5.05%.

Regarding `CS(=O)(=O)c1ccc(Cl)c(NC(=O)COC(=O)C(O)(c2ccccc2)c2ccccc2)c1`, the inhibition is inactive: -2.11%.

Regarding `O=C(OC1CN2CCC1CC2)c1ccc(Cl)cc1` (stereo not drawn), the inhibition is inactive: 0.928%.

For the compound `CN(C)C(=O)c1cc([N+](=O)[O-])cc2c1-c1c(cc([N+](=O)[O-])cc1[N+](=O)[O-])C2=O`, the inhibition was inactive: -2.35%.

On to `O=[N+]([O-])c1ccc2c(c1)nnn2O`, for which the inhibition was inactive: 0.784%.

As for `CN(C(=O)Cc1ccc(Cl)c(Cl)c1)[C@H]1CC[C@@]2(CCCO2)C[C@@H]1N1CCCC1`, the inhibition is inactive: -1.67%.

As for `N#CCCN(C(=O)COC(=O)C(O)(c1ccccc1)c1ccccc1)c1ccc(F)cc1`, the inhibition is inactive: -2.57%.

Regarding `CCOP1(=S)c2c(C)nn(CCC#N)c2N=C(c2ccc(F)cc2)N1C` (stereo not drawn), the inhibition was inactive: -3.73%.

Consider `CN(C(=O)Cc1ccccc1)[C@@H]1CC[C@]2(CCCO2)C[C@H]1N1CCCC1`, for which the inhibition was inactive: 0.127%.

In the case of `NC(=O)Nc1ccc([As](=O)(O)O)cc1`, the inhibition is inactive: -3.24%.

As for `Nc1ccccc1[As](=O)(O)c1ccccc1`, the inhibition was inactive: -11.2%.

Consider `O=C(O)COc1ccc([As](=O)(O)O)cc1[N+](=O)[O-]`, for which the inhibition was inactive: 2.35%.

With `CS(=O)(=O)c1cc([N+](=O)[O-])c2no[n+]([O-])c2c1`, the inhibition was inactive: 11.5%.

Consider `CCOP1(=S)c2c(C)nn(CCC#N)c2N=C(c2ccccc2F)N1C` (stereo not drawn), for which the inhibition was inactive: -4.75%.

For the compound `O=P(Nc1nccs1)(c1ccccc1)c1nc2ccccc2s1` (stereo not drawn), the inhibition is inactive: 24.7%.

In the case of `O=P(Nc1nccs1)(Oc1ccccc1)Oc1ccccc1`, the inhibition was inactive: -0.547%.

`O=P1(Nc2ccc(Br)cn2)COc2ccccc2OC1`: the inhibition is inactive: -0.093%.

Take `NS(=O)(=O)c1cccc(NC(=O)COC(=O)C(O)(c2ccccc2)c2ccccc2)c1`: the inhibition was inactive: -2.65%.

`Cc1ccc(OCC(=O)OC2CN3CCC2CC3)cc1` (stereo not drawn): the inhibition was inactive: -0.415%.

On to `O=[As](O)(c1cccs1)c1cccs1`, for which the inhibition is inactive: -0.927%.

In the case of `Nc1cccc([As](=O)(O)c2ccccc2)c1`, the inhibition was inactive: -12.8%.

As to `O=P1(Nc2ncccn2)COc2ccccc2OC1`, the inhibition was inactive: 0.344%.

With `O=C(/C=C/c1ccccc1)OC1CN2CCC1CC2` (stereo not drawn), the inhibition is inactive: -3.52%.

As to `CN(C)C1(CNC(=O)c2ccc(S(C)(=O)=O)cc2)CCCCC1`, the inhibition was inactive: -2.91%.

For the compound `Cc1nn(-c2ccccc2)c2c1P(=O)(N1CCOCC1)N(C)C(c1ccccc1)=N2` (stereo not drawn), the inhibition is inactive: 0.278%.

Consider `CC1CCC(C(C)C)C(OP(=O)(Nc2ccccn2)c2ccccc2)C1` (stereo not drawn), for which the inhibition was inactive: -0.185%.

As to `Cc1ccc(C(=O)OC2CN3CCC2CC3)cc1` (stereo not drawn), the inhibition was inactive: 0.057%.

With `O=[As](O)(c1ccccc1Br)c1ccccc1Br`, the inhibition is inactive: 0.267%.

`CC1(CBr)Cn2c(nc3ccccc3c2=O)S1` (stereo not drawn): the inhibition is inactive: -0.59%.

With `CC(C)/C=N\N=C(\N)N[N+](=O)[O-]`, the inhibition is inactive: -3.24%.

With `CN(C(=O)Cc1ccc(Cl)c(Cl)c1)[C@@H]1CCCC[C@H]1N1CCCC1`, the inhibition is inactive: -3.29%.

In the case of `COc1ccccc1CNC(=O)COC(=O)C(O)(c1ccccc1)c1ccccc1`, the inhibition was inactive: 0.538%.

On to `Clc1n[nH]nc1-c1nn[nH][15n]1`, for which the inhibition was inactive: 3.86%.

With `CC(C)(C)C(=O)NC(Sc1ncccn1)C(Cl)(Cl)Cl` (stereo not drawn), the inhibition was inactive: -2.56%.

On to `CN(CCCl)Cc1cc(Cl)c(NC2=NCCN2)c(Cl)c1`, for which the inhibition was inactive: -5.79%.

Regarding `CCOP(=O)(Nc1ccc(C)cn1)OCC`, the inhibition was inactive: -1.3%.

For the compound `O=P1(Nc2ccccn2)COc2ccccc2OC1`, the inhibition is inactive: -3%.

On to `CCC1=CC2Cc3nc4ccc(Cl)cc4c(N)c3C(C1)C2` (stereo not drawn), for which the inhibition was inactive: 3.88%.

Regarding `CCOP(=O)(NC(=NC(C)c1ccccc1)NC(C)c1ccccc1)OCC` (stereo not drawn), the inhibition is inactive: -0.31%.

As for `CCC(C)N(CC(C)C)C(=S)SC(NC(C)=O)C(Cl)(Cl)Cl` (stereo not drawn), the inhibition is inactive: 3.87%.

For `CCOC(=O)c1ccc(NC(=O)C(C)(CCl)SC)cc1` (stereo not drawn), the inhibition was inactive: -4.57%.

As to `O=C(OC1CN2CCC1CC2)c1cccc([N+](=O)[O-])c1` (stereo not drawn), the inhibition is inactive: -3.47%.

As to `O=C(COc1ccccc1)OC1CN2CCC1CC2` (stereo not drawn), the inhibition is inactive: 2.67%.

Regarding `O=C(Nc1ccncc1[N+](=O)[O-])c1ccc([N+](=O)[O-])cc1[N+](=O)[O-]`, the inhibition is inactive: -3.57%.

For the compound `COP1(=S)c2c(C)nn(CCC#N)c2N=C(c2ccc(F)cc2)N1C` (stereo not drawn), the inhibition is inactive: 1.37%.

In the case of `O=P(Nc1ccccn1)(c1cccc2ccccc12)c1cccc2ccccc12`, the inhibition is inactive: -3.77%.

As to `Cc1cc(SC(NC=O)C(Cl)(Cl)Cl)ncn1` (stereo not drawn), the inhibition is inactive: -7.67%.

In the case of `CCOC(=O)Nc1cccc([As](=O)(O)O)c1`, the inhibition is inactive: -0.123%.

Turning to `CCCCOc1ccc(C(=O)NCC2(N3CCCCC3)CCCCC2)cc1OC`, the inhibition was inactive: -2.46%.

On to `Cc1cc(SC(NC(=O)c2ccccc2)C(Cl)(Cl)Cl)nc(C(C)C)n1` (stereo not drawn), for which the inhibition is inactive: 3.69%.

Take `CCOC(=O)Nc1ccc([As](=O)(O)O)c(O)c1`: the inhibition is inactive: 2.55%.

`CCN(CC)C(=S)SC(NC=O)C(Cl)(Cl)Cl` (stereo not drawn): the inhibition was inactive: -3.05%.

Turning to `O=C(OC1CN2CCC1CC2)c1cccc2[nH]cnc12` (stereo not drawn), the inhibition is inactive: 1.04%.

On to `CC(C)NC(=O)NP(=O)(Oc1ccccc1)Oc1ccccc1`, for which the inhibition was inactive: 0.574%.

As for `O=[N+]([O-])c1cc([N+](=O)[O-])c(-c2ccn[nH]2)s1`, the inhibition was inactive: 5.83%.

`CC(C)c1ccc(OP(=O)(Nc2ccccn2)Oc2ccccc2F)cc1` (stereo not drawn): the inhibition is inactive: 6.13%.

Source of the values: PubChem BioAssay AID493011 (Sanford-Burnham Center for Chemical Genomics, 2011).
